Several values for one entry are separate records, joined by “and”; a condition that tells them apart may be missing. Equal entries are not always repeated. The entries are a selection whose mix differs from that of the whole data set.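 Each cell line was grown in a 96-well plate and treated with one concentration of compound for 48 hours. Values below 10 were considered active.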 Some structures show a salt or complex split into parts, the way the source records it. Activity calls are given as the source filed them.

The test system of this test is UACC-257 melanoma. In words: NCI-60 one-dose screen, 48 h (100 = growth as untreated, 0 = no growth, -100 = all killed). The settings on record: 10 µM.
Regarding `CCCOP(=S)(Cl)OCCC`, the growth is inactive: 109%. The value for `CN(C)CCS` was inactive: 112% and inactive: 91.3%; that for `O=C(O)C1(O)c2ccccc2-c2ccccc21` was inactive: 86.8% and inactive: 99.1%. On to `Nc1cccc(Cl)c1.O=[N+]([O-])c1cc([N+](=O)[O-])c(O)c([N+](=O)[O-])c1`, for which the growth is inactive: 103%. The value for `OCCSCCO` was inactive: 113%; that for `Nc1cc([As](Cl)Cl)cc(N)c1O` was inactive: 69.5%. With `O=[N+]([O-])N(CCN(CC(Br)([N+](=O)[O-])[N+](=O)[O-])[N+](=O)[O-])CC(Br)([N+](=O)[O-])[N+](=O)[O-]` the figure was inactive: 85.7%; with `O=C1N([N+](=O)[O-])CCN1[N+](=O)[O-]`, inactive: 87.5%. With `CC[N+]([O-])(CC)Cc1ccccc1.O=[N+]([O-])c1cc([N+](=O)[O-])c(S(=O)(=O)O)c([N+](=O)[O-])c1` the figure was inactive: 88.4%. In the case of `CP(=O)(OCCCl)N(CCCl)CCCl` (centres undefined), the growth is inactive: 101%. With `CN(CCO)CCCl.O=[N+]([O-])c1cc([N+](=O)[O-])c(O)c([N+](=O)[O-])c1` the figure was inactive: 95.3%. On to `CCN(CC)CCOC(=O)C(O)(c1ccccc1)c1cc(C)c(C)c(C)c1C` (centres undefined), for which the growth was inactive: 92.5%. Consider `CCN(CC)CCOC(=O)C(O)(c1ccccc1)c1cc(C)cc(C)c1C` (centres undefined), for which the growth was inactive: 110%. With `CCN(C)CC.O=[N+]([O-])c1cc([N+](=O)[O-])c(O)c([N+](=O)[O-])c1` the figure was inactive: 111%. The value for `O=C(Cl)c1c([N+](=O)[O-])cc([N+](=O)[O-])cc1[N+](=O)[O-]` was inactive: 41.6%; that for `COc1ccc(C(O)(C(=O)OCCN2CCCCC2)c2ccc(OC)cc2)cc1` was inactive: 97.2%; that for `Cc1c([N+](=O)[O-])c(C)c([N+](=O)[O-])c(C)c1[N+](=O)[O-]` was inactive: 118%. With `O=C(OCCN1CCCCCCCC1)C(O)(c1ccccc1)c1ccccc1` the figure was inactive: 98.8%; with `CN/C(N)=N/[N+](=O)[O-]`, inactive: 114%. For `CCOC(=O)Nc1c([N+](=O)[O-])cc([N+](=O)[O-])cc1[N+](=O)[O-]`, the growth is inactive: 90.2%. With `O=[N+]([O-])c1cc([N+](=O)[O-])c(Nc2nnnn2CCO)c([N+](=O)[O-])c1` the figure was inactive: 89.3%; with `Cc1c([N+](=O)[O-])cc([N+](=O)[O-])c(Br)c1[N+](=O)[O-]`, inactive: 76%. On to `CN1CCN(CCOC(=O)C(O)(c2ccccc2)c2ccccc2)CC1`, for which the growth is inactive: 116%. On to `O=[N+]([O-])c1cc([N+](=O)[O-])c(O)c([N+](=O)[O-])c1.c1ccc([I+]c2ccccc2)cc1`, for which the growth was inactive: 59.9%.

As for `Nc1cc([N+](=O)[O-])cc([N+](=O)[O-])c1O`, the growth was inactive: 98.8% and inactive: 91%. For the molecule `CC(C)N(CCCl)C(C)C`, the growth is inactive: 96.1%.

With `O=[N+]([O-])OCCOc1ccc([N+](=O)[O-])cc1[N+](=O)[O-]`, the growth was inactive: 98.9%. With `O=[N+]([O-])N(CCOC(N(F)F)(N(F)F)N(F)F)CC([N+](=O)[O-])([N+](=O)[O-])[N+](=O)[O-]` the figure was inactive: 100%; with `NN/C(N)=N/[N+](=O)[O-]`, inactive: 90.6%.

Values taken from PubChem BioAssay (NCI).
